From article PMC6017358, “In Silico-Based Repositioning of Phosphinothricin as a Novel Technetium-99m Imaging Probe with Potential Anti-Cancer Activity” (Molecules : A Journal of Synthetic Chemistry and Natural …, 2018)
Counter-ions that a name gives are not always drawn.

Assay: Biodistribution study in mice
Settings: I.V., 10 min post injection, n = 3

Structure (SMILES): CP(=O)(O)CCC(N)C(=O)O (stereo not shown) [Phosphinothricin, 2-amino-4-(hydroxymethyl-phosphinylbutyric acid ammonium salt]
- Biological distribution, Bone: 36.13 ± 1.5 %ID/organ
